From PubChem
GIV Gai3 FP = blocks GIV peptide binding to rat Galpha-i3. P08753. Galpha-i3/FITC-GIV peptide fluorescence polarization, 90 min; stronger effect = lower value; scaled: aluminum fluoride 0%, vehicle 100%. percent of control (FP), % (test concentration not listed). 0.42% of 210,000 active. AID 1224905;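 active = replicate mean at 85% of control or lower, very high polarization wells dropped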;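 note: wells of about 15 µL received 100 nL stock; the first replicate is given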
HCMV UL50-53 inh = cytomegalovirus nuclear egress complex inhibition | HTRF UL50-UL53 interaction, normalized percent inhibition | inhibition, % (no concentration beside the values) | 190,000 tested, 0.15% active; in the data active = inhibition above about 27%, passing the limit was not always enough
Large screens that a line does not name were inactive. The list is not random: actives were taken first. Their share in the collection is about 0.43%.

CC1=C(C(=O)OCc2ccccc2)C(c2cccc(Oc3ccccc3)c2)NC(=O)N1 (configuration not stated)	none
Cc1ccc(Cl)cc1NC(=O)C1CCN(Cc2cnn(-c3ccccc3)c2-n2cccc2)CC1	none
Cc1nnc(N2CCCC(C(=O)NC(C)C)C2)c2nn(-c3ccccc3)c(C)c12 (configuration not stated)	none
CCC(C)OC(=O)C1=C(C)NC2(O)c3ccccc3C(=O)C12O (configuration not stated)	none (no result: HCMV UL50-53 inh)
CC1=C(C(=O)OC(C)C)C2(O)C(=O)c3ccccc3C2(O)N1 (configuration not stated)	HCMV UL50-53 inh 61
CC1CCc2cc(F)ccc2N1C(=O)c1ccc(N2CC3CC(C2)c2cccc(=O)n2C3)c(NC(=O)c2cccnc2)c1 (configuration not stated)	none (no result: HCMV UL50-53 inh)
CCCC(=O)Nc1cccn(Cc2cccc(OC)c2)c1=O	HCMV UL50-53 inh 50
COc1cccc(Cn2ccn(Cc3ccccc3)c(=O)c2=O)c1	none
Cc1cccc(NC(=O)CSc2ncnc3c(-c4ccccc4)c[nH]c23)c1	none (no result: HCMV UL50-53 inh)
CCOc1cc(C=C2C(=O)N(C)C(=O)N(C)C2=O)ccc1OCCOc1ccc([N+](=O)[O-])cc1	HCMV UL50-53 inh 55
CCOc1cc(C=C2C(=O)N(C)C(=O)N(C)C2=O)ccc1OCCOCCOc1ccc(C)cc1	none
CCSc1nnc2c(n1)OC1(Nc3ccccc3-2)C(=O)Nc2ccc(Br)cc21 (configuration not stated)	none (no result: GIV Gai3 FP)
CSc1nnc2c(n1)OC1(Nc3ccccc3-2)C(=O)Nc2ccc(Cl)cc21 (configuration not stated)	HCMV UL50-53 inh 50
Cc1ccccc1Cc1c(C)nc2c(C(=O)NCc3cccnc3)cnn2c1C	none (no result: HCMV UL50-53 inh)
O=C(Cn1cnc2onc(-c3cccc(F)c3)c2c1=O)NC1CCCC1	none (no result: HCMV UL50-53 inh)
CN1CCCc2cc(/C=C3\Cc4ccccc4C3=O)ccc21	GIV Gai3 FP -75 (no result: HCMV UL50-53 inh)
COc1cc(/C=C2\Cc3ccccc3C2=O)ccc1O	none
COc1ccc(-n2c(C)cc(CN)c2C)cc1	none
COc1ccc(OC)c(NS(=O)(=O)c2cc(-c3nc(C)cs3)n(CC(=O)N3CCCC3)c2)c1	none (no result: HCMV UL50-53 inh)
C=Cc1c(C)/c2[n-]/c1=C\c1[n-]c(c(CC)c1C)/C=c1\[n-]c3c(c1C)C(=O)C(C(=O)[O-])C=3c1[n-]c(c(C)c1CCC(=O)[O-])\C=2.[Cu].[Na+].[Na+] (configuration not stated)	HCMV UL50-53 inh 52 (no result: GIV Gai3 FP)
O=S(=O)(c1cccn2c(SCc3ccccc3Cl)nnc12)N1CCCCC1	none (no result: HCMV UL50-53 inh)
C=CC(=O)Nc1cccc(Oc2nc(Nc3ccc(N4CCN(C)CC4)cc3OC)ncc2Cl)c1	none (no result: GIV Gai3 FP)
C=CC(=O)Nc1cccc(Oc2cc(Cl)nc3[nH]ccc23)c1	HCMV UL50-53 inh 34 (no result: GIV Gai3 FP)
Cc1ccc(OCC(=O)Nc2ccc3c(c2)NC(=O)CO3)cc1	none
CCOc1cc(/C=C2\SC(=S)N(CC)C2=O)cc(Cl)c1O	GIV Gai3 FP -15
CCOc1cccc(/C=C2\SC(=S)N(CC)C2=O)c1O	none (no result: GIV Gai3 FP)
N#C/C(=C\c1ccccc1Cl)c1nc(-c2cc3cc(Br)ccc3oc2=O)cs1	none
COc1cccc(C(=O)Nc2nnc(SCc3ccccc3)s2)c1	none (no result: GIV Gai3 FP)
COc1cccc(C(=O)c2sc3nsc(SCc4ccccc4)c3c2N)c1	GIV Gai3 FP -42
CN1C(=O)c2cccc(NC(=O)CSc3ccc(F)cc3)c2C1=O	none
CCNc1cccc2c1C(=O)N(C)C2=O	GIV Gai3 FP 6.2
O=C(O)c1c(-n2cccc2)sc2c1CCSC2	none (no result: GIV Gai3 FP)
COc1ccc(C2CC(=O)NC(SCC(=O)Nc3cccc(Cl)c3)=C2C#N)cc1OC (configuration not stated)	none (no result: HCMV UL50-53 inh)
COc1ccc2cccc3c2c1C=CC3=O	GIV Gai3 FP -89
CNc1cccc2cccc(OC)c12	none (no result: GIV Gai3 FP)
O=C(CCc1ccccc1)N1CCC(N2CCN(Cc3cccc(F)c3)C(=O)C2=O)CC1	none
O=c1oc2ccccc2nc1/C=C(\O)c1cccs1	GIV Gai3 FP -69
O=C(c1ccccc1)c1nc2ccccc2oc1=O	none (no result: GIV Gai3 FP)
O=C1NC(=Nc2ccc(F)cc2)S/C1=C/c1ccc(N2CCCC2)o1	none (no result: GIV Gai3 FP)
O=C1NC(=Nc2ccc(F)cc2)S/C1=C/c1ccc(N2CCCCCC2)o1	GIV Gai3 FP -78
Cn1c(SCc2nc(-c3cccc(Cl)c3)no2)nc2cc3c(cc2c1=O)OCO3	none (no result: HCMV UL50-53 inh)
CC(C)C(=O)Nc1ccc(N(C)C)cc1C(=O)O	HCMV UL50-53 inh 51
CC(C)C(=O)Nc1ccc(Cl)cc1C(=O)O	none
CC(Sc1nc(C2CC2)n(-c2ccccc2)n1)C(=O)NCc1ccc2c(c1)OCO2 (configuration not stated)	none (no result: GIV Gai3 FP)
CCCCCCn1c(CN(C)C(C)=O)nc2ccccc21	none
N#CC1=C(N)SC(N)=C(C#N)C1c1cc2c(cc1Cl)OCO2	GIV Gai3 FP -0.4
CCc1ccc(C2C(C#N)=C(N)Oc3cc4c(cc32)OCO4)cc1 (configuration not stated)	none (no result: HCMV UL50-53 inh)
CCN(CC)c1ccc(/C=C2/SC(=O)NC2=O)cc1	none
CCN(CC)c1ccc(/C=C/c2cc(=O)cc(C)o2)cc1	GIV Gai3 FP -61
Cc1nc2sccn2c1C(=S)NC(=O)c1ccc(S(=O)(=O)N2CCCCCC2)cc1	none (no result: GIV Gai3 FP)
N#C/C(=C\c1ccc(N2CCCC2)o1)c1ccccc1	GIV Gai3 FP -49
N#C/C(=C\c1ccc(-c2ccccc2)o1)c1ccccc1	none
CCNc1c2c3c(cccc3n(C)c1=O)C(=O)c1ccccc1-2	none (no result: GIV Gai3 FP)
Cn1c(=O)c(NC2CCCCC2)c2c3c(cccc31)C(=O)c1ccccc1-2	GIV Gai3 FP 3.5 (no result: HCMV UL50-53 inh)
O=C(NC1CCN(Cc2ccccc2)CC1)c1ccc(Cn2c(=O)c(=O)[nH]c3cccnc32)cc1	none
C=CCN1C(=O)NC(=O)/C(=C/c2ccc(OCc3ccccc3F)c(OCC)c2)C1=O	none
C=CCN1C(=O)NC(=O)/C(=C/c2ccccc2OCc2ccc(Cl)cc2)C1=O	HCMV UL50-53 inh 82
C=CCN1C(=O)NC(=O)/C(=C\c2cn(Cc3ccccc3)c3ccccc23)C1=O	GIV Gai3 FP 21 (no result: HCMV UL50-53 inh)
O=C(Cn1cc(/C=C2\C(=O)NC(=O)N(Cc3ccccc3)C2=O)c2ccccc21)NCc1ccco1	GIV Gai3 FP -35
C=CCN1C(=O)NC(=O)/C(=C/c2ccc(OCc3ccc(Cl)cc3)c(OC)c2)C1=O	none
C=CCN1C(=O)NC(=O)/C(=C/c2cccc(OCc3ccccc3Cl)c2)C1=O	HCMV UL50-53 inh 73
CN1C(=O)/C(=C/c2cn(CC(=O)NCc3ccco3)c3ccccc23)C(=O)NC1=S	none
CN1C(=O)/C(=C/c2cn(Cc3ccccc3)c3ccccc23)c2ccccc21	none (no result: HCMV UL50-53 inh)
C[C@H](NC(=O)c1ccc(F)cc1)c1nc2ccccc2[nH]1	none (no result: GIV Gai3 FP)
Cc1cc(-c2ccc(S(=O)(=O)Nc3cccc(Br)c3)cc2)on1	none
CC1CS(=O)(=O)N(c2ccc(C(=O)N3CCCC3)cc2)C1=O (configuration not stated)	none
O=C(NCc1cccnc1)c1cnc2sc(N3CCCCC3)nn2c1=O	none
O=c1c(-c2ccccc2Cl)cc2c(n1Cc1ccncc1)CCN(Cc1ccnc3ccccc13)C2	none (no result: GIV Gai3 FP)
CCCCCNC(=O)c1cncc(-c2ccc(C)cc2)c1	none (no result: HCMV UL50-53 inh)
O=C(c1ccccc1Cl)N1CCN(c2cc(=O)n3nc(-c4ccccc4)sc3n2)CC1	none
Cc1ccccc1-c1nc2scc(CCNC(=O)c3ccc(OC(C)C)cc3)n2n1	none
NC(=O)C[n+]1ccn2c(NC3CCCCC3)c(-c3ccccc3O)nc2c1	GIV Gai3 FP -75 (no result: HCMV UL50-53 inh)
Cc1ccc(Nc2c(-c3ccccc3O)nc3cc(C)ccn23)cc1	none
CCN1C(=O)/C(=C/c2c(N3CCCCC3)nc3ccccn3c2=O)SC1=S	GIV Gai3 FP -75
